# Source: ChEMBL document CHEMBL2146416
# Tests used:
# NCCCC(=O)O [1] = test: Activity of pig GABA aminotransferase using alpha-ketoglutarate as substrate after 16 hrs by Hanes-Woolf plot analysis; settings: Sus scrofa
# NCCCC(=O)O [2] = test: Ratio of Kcat to Km for pig GABA aminotransferase; settings: Sus scrofa
substance,measurement,setting,value
"4-aminobutyrate aminotransferase, mitochondrial (Sus scrofa), P80147",kcat,NCCCC(=O)O [1],0.817 s⁻¹
same,kcat/Km,NCCCC(=O)O [2],643 M⁻¹ s⁻¹
